# Measured values published in PMC6178619, “Arylvinylpiperazine Amides, a New Class of Potent Inhibitors Targeting QcrB of Mycobacterium tuberculosis” (mBio, 2018).
# Read-outs that look alike come from different tables or passages of the source.
# System: HepG2 cells
# Type: cell-based, human
# Description: Human HepG2 cells (4,000 cells/well) were incubated for 3 days with 2-fold serially diluted compounds at 37°C under an atmosphere of 5% CO2. Cell viability was determined by the addition of resazurin (0.0025% wt/vol) for 4 h at 37°C, and the fluorescence intensity was measured as in REMA.
# [1] = HepG2 TD50 / M. tuberculosis H37Rv MIC
structure (smiles),measurement,setting,value
"O=C(/C=C/c1cccs1)N1CCN(Cc2ccc3c(c2)OCO3)CC1 [AX-35, (E)-1-(4-(Benzo[d][1,3]dioxol-5-ylmethyl)piperazin-1-yl)-3-(thiophen-2-yl)prop-2-en-1-one]",Selective index (TD50/MIC),[1],"1,000"
"O=C(/C=C/c1cscn1)N1CCN(Cc2ccc3c(c2)OCO3)CC1 [AX-37, (E)-1-(4-(Benzo[d][1,3]dioxol-5-ylmethyl)piperazin-1-yl)-3-(1λ^3,3λ^2-thiazol-4-yl)prop-2-en-1-one]",Selective index (TD50/MIC),,250
"O=C(/C=C/c1ccccc1)N1CCN(Cc2ccc3c(c2)OCO3)CC1 [AX-38, (E)-1-(4-(Benzo[d][1,3]dioxol-5-ylmethyl)piperazin-1-yl)-3-phenylprop-2-en-1-one]",Selective index (TD50/MIC),,188
"O=C(/C=C/c1nccs1)N1CCN(Cc2ccc3c(c2)OCO3)CC1 [AX-39, (E)-1-(4-(Benzo[d][1,3]dioxol-5-ylmethyl)piperazin-1-yl)-3-(thiazol-2-yl)prop-2-en-1-one]",Selective index (TD50/MIC),,250
"O=C(/C=C/c1ccsc1)N1CCN(Cc2ccc3c(c2)OCO3)CC1 [AX-36, (E)-1-(4-(Benzo[d][1,3]dioxol-5-ylmethyl)piperazin-1-yl)-3-(thiophen-3-yl)prop-2-en-1-one]",Selective index (TD50/MIC),[1],375
